The values that follow come from patent US20230047816A1 (priority 2018, published 2023).

By UniProt entry, the sequences of proteins in these tests, tags left out.
UniProt Q16875, whole entry: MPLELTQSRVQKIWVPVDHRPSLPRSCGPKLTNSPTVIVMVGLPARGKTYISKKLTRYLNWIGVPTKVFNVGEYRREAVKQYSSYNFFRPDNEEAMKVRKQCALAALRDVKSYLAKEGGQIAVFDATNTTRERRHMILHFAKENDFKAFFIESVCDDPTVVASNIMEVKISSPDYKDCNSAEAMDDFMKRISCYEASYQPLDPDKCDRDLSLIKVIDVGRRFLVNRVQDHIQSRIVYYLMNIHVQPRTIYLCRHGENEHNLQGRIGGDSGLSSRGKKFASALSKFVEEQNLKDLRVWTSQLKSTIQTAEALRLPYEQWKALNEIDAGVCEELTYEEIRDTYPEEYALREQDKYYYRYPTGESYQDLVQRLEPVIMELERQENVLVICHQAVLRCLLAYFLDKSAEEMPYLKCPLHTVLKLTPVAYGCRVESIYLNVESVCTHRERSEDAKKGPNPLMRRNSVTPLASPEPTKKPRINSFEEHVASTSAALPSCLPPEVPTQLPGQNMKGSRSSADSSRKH

The assay deals with Recombinant full length human PFKFB3 (Homo sapiens, UniProt Q16875). As to the kind of experiment: PFKFB3 kinase activity assay (ADP production, ADP-Glo). Particulars: read-out: Enzymatic PFKFB3 activity: IC50; compounds of Formula (VII), example numbering restarted from 1. A general note: ADP-Glo turns the ADP formed in a reaction into a luminescent signal.

pIC50: −log10 of the molar value. Where only a bound is given, the exact number is not on record here.

For `CS(C)(=O)=NC(=O)c1ccc(C(=O)Nc2cc(-c3ccc(Cl)cc3Cl)ccc2C(=O)O)c(C(=O)O)c1`, the pIC50 is > 6.30. For the compound `CS(C)(=O)=NC(=O)c1ccc(C(=O)O)c(C(=O)Nc2cc(-c3ccc(Cl)cc3Cl)ccc2C(=O)O)c1`, the negative logarithm of the IC50 (pIC50) was 5.70 to 6.30. With `COc1ccc(-c2c(C)sc(NC(=O)c3ccc(C(=O)N[C@@H](CO)C(=O)O)cc3C(=O)O)c2C#N)cc1`, the pIC50 is > 4.70.

What is called pIC50 is the negative decadic logarithm of the IC50, by convention in mol/L.
